The values below come from patent US20020025510A1, “Screening methods based on superactivated alpha V beta 3 integrin” (priority 2000, published 2002).

In the test the target is integrin αvβ3 with the wild type β3 subunit, on β3-MCF7 cells (human) (UniProt P06756). In words: cell-based or functional assay.

With “human MT1-MMP, on transfected MCF7 cells (MT-MCF7 and β3/MT-MCF7) (from UniProt P50281 112-582) (enzyme)”, the apparent molecular mass of the β3 subunit precipitated from cells, SDS-PAGE was determined as 5 kDa.
